# Test results as given in PubChem BioAssay AID504467 (National Center for Advancing Translational Sciences (NCATS), 2011).
# The list shows a part of the results, in another mix than the full data. Records with an inconclusive call do not appear. Active and inactive are the calls of the source. Calls follow the shape of the dose curve; as a rule, active = well fitted inhibition curve with a large enough effect; inconclusive = small, poorly fitted or top-dose-only effect, or effect the other way; inactive = flat fitted curve, though single readings scatter.
# Experiment: qHTS screen for small molecules that inhibit ELG1-dependent DNA repair in human embryonic kidney (HEK293T) cells expressing luciferase-tagged ELG1; also: nearly all actives have a fitted effect of over 55% in size
# Conditions: HEK293T ELG1-luciferase reporter, luminescence, 16 h; DNA damage induced by 5-fluorouridine
# Excerpt: NIH Molecular Libraries Probe Production Network [MLPCN] NIH Chemical Genomics Center [NCGC] MLPCN Grant: 1 R03 MH092164-01 Assay Provider: Kyungjae Myung, NHGRI, NIH Keywords: MLPCN, qHTS, NCGC, genotoxicity, cancer Assay Overview: Cancer cells divide rapidly compared to normal cells in the body. During cell division, cancer cells need to duplicate their genome by DNA replication. The failure of genome duplication leads to cancer cells' death. Therefore, inhibitors of DNA replication could specifically kill cancer cells. Based on this concept, many chemotherapeutic agents were developed and have been used to treat cancer patients. However, there are a limited number of agents available in the clinical setting, and some of those that do exist have low efficacy and severe side effects. […] With this in mind, we developed a quantitative high-throughput ELG1-luciferase reporter gene assay. […]
# Assay Protocol Summary: For genotoxicity screening, 2,000 cells in 4 uL/well were dispensed into white, solid-bottom 1536-well plates using a solenoid-based dispenser. […] 5 ul ONE-Glo (Promega) was then added to each plate and following a 30 min incubation at room temperature, luciferase activity was quantified on a ViewLux CCD-based plate reader.
# Potency is read from the fitted curve at half-maximal effect.
row,Compound,Potency
1,Nc1ncn([C@@H]2O[C@H](CO)[C@@H](O)[C@H]2O)c(=O)n1,active: 2820 nM
